This is an account of results in paper PMC9309012 (Journal of medicinal chemistry, 2021).

The series relates to HeLa cells. Briefly: Cytotoxicity assay in human HeLa cells. The series is classed as cell-based. As to conditions: 48 h, described in words (Fig. 2-4).

As for “(Triethylphosphine)gold(I) iodide [Compound 26]”, the human cytotoxicity result is listed as “decreased but either to a lesser extent or to below the assay sensitivity”. The value for “(Trimethylphosphine)gold(I) iodide [Compound 25]” was “decreased but either to a lesser extent or to below the assay sensitivity”.
